Assay: Determination of the dissolution rate (mass of filter residue)
Format: physicochemical
Conditions: summary of Table 4, listed as finely ground creatine monohydrate
Description: The moist filter residue is dried. The mass of the filter residue serves as a measure of the dissolution rate; the lower the mass, the better the dissolution rate.

CN(CC(=O)O)C(=N)N.O [Example 6, creatine monohydrate]
dissolution rate (in words): high dissolution rate

From patent publication US20250359578A1, “WATER-SOLUBLE CREATINE AGGLOMERATE” (Alzchem Trostberg GmbH, priority 2022, published 2025)
